# scFv variants of Ab-95 (light chain) against a SARS-CoV-2 spike peptide

Source: Engelhart et al. 2022 (doi:10.1038/s41597-022-01779-4), MIT Lincoln Laboratory and A-Alpha Bio; data file from the FLAb repository.

Target: peptide PDVDLGDISGINAS, taken from heptad repeat 2 (HR2) of SARS-CoV-2 spike.

Ab-95 is the parent antibody, in scFv form: VH, then a 15-residue (Gly4Ser)3 linker, then VL. The heavy chain is unchanged in all variants.
VH: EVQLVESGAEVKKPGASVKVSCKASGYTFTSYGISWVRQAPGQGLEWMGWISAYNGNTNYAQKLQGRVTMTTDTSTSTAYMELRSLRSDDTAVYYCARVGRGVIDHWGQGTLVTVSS
VL: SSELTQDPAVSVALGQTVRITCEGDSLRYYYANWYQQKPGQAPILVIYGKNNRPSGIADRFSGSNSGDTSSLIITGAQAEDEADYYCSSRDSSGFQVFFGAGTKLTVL

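The starting antibody came from a phage panning campaign against this peptide. AAYL52 was designed without a model: most single CDR substitutions and a random sample of double and triple ones. The assay is AlphaSeq: two haploid yeast populations carry antibody and antigen on their surface. The frequency of each diploid, read from paired DNA barcodes, reflects how well the two displayed proteins bind. Scores were corrected for input abundance and mapped to Kd with protein pairs of known affinity run in the same pool. Mating was done three times.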

The parent's light chain CDRs are EGDSLRYYYAN, GKNNRPS, SSRDSSGFQVF; each variant's own CDRs replace them letter for letter. Values are log10 of the apparent Kd in nM; lower means stronger binding. Where no diploid with the target was found in that replicate, the entry reads "nd": below detection, most likely a poor binder, though not proof of it. As a blank, each scFv also met three strains without target: over library AAYL52, 28% of these pairings were detected, typically at 3.91 and seldom below 2.90. The control count says in how many pairings with the empty strains this scFv gave a signal, with their mean in brackets. Parent in this assay: reference entry 2.31, copy in this library 2.25.

CDR-L1	CDR-L2	CDR-L3	log10 Kd, replicates	signal with controls
EGDSLRYYYAC	GKNNRAS	HSRDSSGFQVF	nd / 3.66 / nd	4 of 9 (3.48)
EKDSLRYYYAN	CKNNRPS	SSHDSSGFQVF	nd / nd / nd	1 of 9 (4.45)
PGDSLIYYYAN	GKNNRPS	SSDDSSGFQVF	nd / nd / 3.65	2 of 9 (3.03)
EMCSLRYYYAN	GKNNRFS	SSRDSSGFQVF	4.38 / nd / 4.10	5 of 9 (3.86)
EGDSLRYYYAN	GYNNRPS	SSRDSSCFIVF	nd / 3.36 / nd	3 of 9 (4.46)
EGDSLRYYYGN	GLNNRPS	SSRDSSGFQVF	nd / 4.08 / 3.81	1 of 9 (4.20)
EGDSLRRYYAN	GKNNRPS	SPLDSSGFQVF	3.30 / 3.58 / nd	4 of 9 (4.27)
EDDSLRYNYAN	GKNNRPS	SSRDSSCFQVF	1.56 / 1.42 / 1.33	3 of 9 (4.81)
EGDSLRIYYAN	GKNNRPS	SRRDWSGFQVF	4.58 / 3.81 / nd	4 of 9 (4.66)
EGDSLVYYYAN	GKNNPPS	SSRDSSDFQVF	nd / nd / 3.30	2 of 9 (3.95)
EGDSHRYYYTN	GKNNRPV	SSRDSSGFQVF	2.22 / 2.06 / 2.32	3 of 9 (3.78)
AGDSLRYYYAN	GKNNRPS	SSRKSSGFPVF	2.46 / 1.94 / 1.94	2 of 9 (4.49)
PSDSLRYYYAN	GKNNRPG	SSRDSSGFQVF	3.11 / 2.48 / 1.39	2 of 9 (4.56)
QGDSLRCYYAN	GKNNRPS	SSRDSSGFQVS	3.24 / 2.89 / 2.56	3 of 9 (4.49)
EGDSLRCYYTN	GKNNRPS	SSRDPSGFQVF	3.21 / 3.07 / 2.99	5 of 9 (4.51)
EGDSLRYYYAN	MKNNRPS	SSWDSLGFQVF	nd / nd / 3.49	1 of 9 (2.94)
EGDSLRYYYAN	NKNNRPS	SSRDSSGFQVS	3.49 / 4.35 / 3.55	7 of 9 (4.03)
EGDFLRRYEAN	GKNNRPS	SSRDSSGFQVF	1.94 / 1.85 / 1.49	1 of 9 (3.73)
ENDSLRYYYAN	GKNNRPS	SSRDSSGWQVF	nd / 3.90 / nd	4 of 9 (4.32)
EGDSLRYKYAN	GKNNRPS	SSRDSSGFQVF	1.33 / 1.05 / 0.52	2 of 9 (4.18)
EGQDLRYYYAN	GKNNRPS	SSRDSSGFQFF	2.86 / 2.78 / 3.46	3 of 9 (4.43)
ELDSLRYYYAN	GKNNRPS	FSRDSSGFQIF	nd / 4.31 / nd	2 of 9 (3.66)
EGYSLRYMYAN	FKNNRPS	SSRDSSGFQVF	nd / 4.59 / nd	1 of 9 (3.99)
EGVTLRYYYAN	GKNNRPS	SSFDSSGFQVF	5.00 / 3.64 / nd	5 of 9 (4.63)
AGDDLRYYYAN	GKNNRPS	SSRDSSGPQVF	nd / 3.62 / nd	0 of 9
EGDSLFYYYAN	GKNNAPS	SSRDSSGFRVF	nd / nd / nd	3 of 9 (4.32)
EGDSLRRYYAT	GKNNRPS	SSRDMSGFQVF	4.70 / 3.67 / 3.95	5 of 9 (4.33)
EGDSLRYYYAN	GTNNRCS	SSRDSSGFQQF	2.91 / 3.76 / nd	1 of 9 (4.52)
EGASLRYYYAN	GKNNRPS	SSRDSMGFQVF	2.44 / 2.39 / 1.79	6 of 9 (4.30)
EGDSWRYYYAN	GKNRRPS	SSRDSSGFQVF	3.86 / 3.76 / 3.28	4 of 9 (4.24)
EGDSLRYKYAN	GKNARPS	SSRDDSGFQVF	3.11 / nd / 3.00	0 of 9
EGDSLRNYYAN	GKNKRPS	WSRDSSGFQVF	2.43 / 2.61 / 3.12	2 of 9 (3.85)

The first 5 entries again:

CDR-L1,CDR-L2,CDR-L3,"log10 Kd, replicates",signal with controls
EGDSLRYYYAC,GKNNRAS,HSRDSSGFQVF,nd / 3.66 / nd,4 of 9 (3.48)
EKDSLRYYYAN,CKNNRPS,SSHDSSGFQVF,nd / nd / nd,1 of 9 (4.45)
PGDSLIYYYAN,GKNNRPS,SSDDSSGFQVF,nd / nd / 3.65,2 of 9 (3.03)
EMCSLRYYYAN,GKNNRFS,SSRDSSGFQVF,4.38 / nd / 4.10,5 of 9 (3.86)
EGDSLRYYYAN,GYNNRPS,SSRDSSCFIVF,nd / 3.36 / nd,3 of 9 (4.46)